{"sequences": {"note": "Sequences of proteins named here, by UniProt entry; tags and fusion partners are left off. A change or cut given only in a name is not applied to a line headed by its entry.", "UniProt Q00526": "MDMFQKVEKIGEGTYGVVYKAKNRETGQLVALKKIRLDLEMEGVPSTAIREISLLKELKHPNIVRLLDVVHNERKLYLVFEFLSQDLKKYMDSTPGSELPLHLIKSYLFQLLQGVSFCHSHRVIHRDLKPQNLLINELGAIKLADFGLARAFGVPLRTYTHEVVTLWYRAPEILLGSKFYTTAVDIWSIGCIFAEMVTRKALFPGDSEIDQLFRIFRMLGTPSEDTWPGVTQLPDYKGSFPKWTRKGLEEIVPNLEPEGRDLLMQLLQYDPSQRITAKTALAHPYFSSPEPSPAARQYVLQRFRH"}, "source": "patent US10087225B2", "about": "“Formulation of MK2 inhibitor peptides” (MOERAE MATRIX, INC., priority 2015, dated 2018)", "assay_in_all_cases": "Kinase Profiling Assay", "assay_type_in_all_cases": "biochemical", "settings_in_all_cases": "100 μM", "key": {"TAO1(h)": {"target": "T1, TAO1(h) (Homo sapiens, UniProt Q7L7X3)", "T1 sequence (Q7L7X3 1-1001)": "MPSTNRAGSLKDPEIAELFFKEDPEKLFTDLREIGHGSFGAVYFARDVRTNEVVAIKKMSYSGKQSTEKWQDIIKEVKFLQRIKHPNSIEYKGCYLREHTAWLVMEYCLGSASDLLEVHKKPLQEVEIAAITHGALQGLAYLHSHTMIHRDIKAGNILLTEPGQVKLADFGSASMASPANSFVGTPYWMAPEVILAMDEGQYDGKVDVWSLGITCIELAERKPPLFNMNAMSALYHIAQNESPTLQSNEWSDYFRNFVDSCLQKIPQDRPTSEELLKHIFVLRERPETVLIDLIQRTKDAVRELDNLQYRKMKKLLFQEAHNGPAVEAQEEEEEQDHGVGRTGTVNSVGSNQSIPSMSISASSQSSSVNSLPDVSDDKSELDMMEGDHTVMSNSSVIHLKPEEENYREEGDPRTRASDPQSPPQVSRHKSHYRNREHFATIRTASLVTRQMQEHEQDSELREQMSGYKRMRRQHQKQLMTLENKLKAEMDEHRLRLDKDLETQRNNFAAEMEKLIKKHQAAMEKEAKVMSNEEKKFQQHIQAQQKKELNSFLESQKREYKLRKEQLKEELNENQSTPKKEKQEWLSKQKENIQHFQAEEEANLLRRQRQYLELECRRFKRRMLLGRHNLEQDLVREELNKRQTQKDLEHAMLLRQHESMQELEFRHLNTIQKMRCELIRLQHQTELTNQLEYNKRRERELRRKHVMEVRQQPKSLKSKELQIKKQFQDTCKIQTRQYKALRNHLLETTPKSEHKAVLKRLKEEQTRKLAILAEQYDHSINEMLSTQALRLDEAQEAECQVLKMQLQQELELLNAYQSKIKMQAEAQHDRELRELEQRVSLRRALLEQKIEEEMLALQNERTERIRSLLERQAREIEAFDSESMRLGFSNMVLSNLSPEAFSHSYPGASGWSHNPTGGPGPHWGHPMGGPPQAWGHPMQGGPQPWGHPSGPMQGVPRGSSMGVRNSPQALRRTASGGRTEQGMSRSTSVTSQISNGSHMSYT"}, "IKKα(h)": {"target": "T2, IKKα(h) (Homo sapiens, UniProt O15111)", "T2 sequence (O15111 1-745)": "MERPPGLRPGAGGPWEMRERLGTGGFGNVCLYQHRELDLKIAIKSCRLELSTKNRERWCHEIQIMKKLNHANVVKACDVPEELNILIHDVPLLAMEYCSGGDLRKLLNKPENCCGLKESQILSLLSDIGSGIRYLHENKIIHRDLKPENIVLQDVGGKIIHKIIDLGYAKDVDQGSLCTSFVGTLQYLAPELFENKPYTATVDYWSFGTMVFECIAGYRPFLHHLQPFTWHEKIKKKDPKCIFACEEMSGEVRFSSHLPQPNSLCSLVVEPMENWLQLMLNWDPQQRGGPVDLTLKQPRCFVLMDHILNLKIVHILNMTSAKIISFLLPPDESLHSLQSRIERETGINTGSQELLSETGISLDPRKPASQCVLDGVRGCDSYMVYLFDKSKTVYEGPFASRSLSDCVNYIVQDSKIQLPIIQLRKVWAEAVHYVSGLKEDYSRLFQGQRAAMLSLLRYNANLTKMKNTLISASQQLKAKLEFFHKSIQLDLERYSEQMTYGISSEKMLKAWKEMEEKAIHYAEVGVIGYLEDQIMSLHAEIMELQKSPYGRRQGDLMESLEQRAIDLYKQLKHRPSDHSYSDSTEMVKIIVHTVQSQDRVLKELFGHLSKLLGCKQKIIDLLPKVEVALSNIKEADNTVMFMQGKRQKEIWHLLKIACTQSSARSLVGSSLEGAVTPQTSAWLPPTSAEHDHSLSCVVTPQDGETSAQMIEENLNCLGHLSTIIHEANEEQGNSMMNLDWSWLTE"}, "BrSK2(h)": {"target": "T3, BrSK2(h) (Homo sapiens, UniProt Q8IWQ3)", "T3 sequence (Q8IWQ3 1-736)": "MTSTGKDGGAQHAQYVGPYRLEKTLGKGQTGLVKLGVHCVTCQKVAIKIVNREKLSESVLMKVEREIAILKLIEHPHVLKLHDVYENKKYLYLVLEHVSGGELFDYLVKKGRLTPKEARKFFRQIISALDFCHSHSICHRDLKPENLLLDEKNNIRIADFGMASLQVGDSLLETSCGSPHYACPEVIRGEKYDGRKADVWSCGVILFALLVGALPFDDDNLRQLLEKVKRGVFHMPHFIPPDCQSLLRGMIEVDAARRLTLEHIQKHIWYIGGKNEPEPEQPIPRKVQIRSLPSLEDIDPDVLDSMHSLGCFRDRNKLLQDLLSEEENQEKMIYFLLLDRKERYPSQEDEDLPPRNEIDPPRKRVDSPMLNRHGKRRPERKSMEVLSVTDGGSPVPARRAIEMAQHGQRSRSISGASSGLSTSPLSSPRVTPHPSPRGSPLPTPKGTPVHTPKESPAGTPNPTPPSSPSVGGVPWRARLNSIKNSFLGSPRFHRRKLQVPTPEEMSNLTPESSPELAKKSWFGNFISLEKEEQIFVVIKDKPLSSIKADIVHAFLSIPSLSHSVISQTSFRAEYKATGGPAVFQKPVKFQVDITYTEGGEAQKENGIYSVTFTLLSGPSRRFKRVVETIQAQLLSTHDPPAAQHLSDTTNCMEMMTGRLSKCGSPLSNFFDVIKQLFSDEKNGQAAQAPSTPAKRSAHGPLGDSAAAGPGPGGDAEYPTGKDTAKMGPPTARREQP"}, "CDK3/cyclinE(h)": {"target": "CDK3/cyclinE(h) (Homo sapiens, UniProt Q00526)"}, "Ab1(Q252H)(h)": {"target": "Ab1(Q252H)(h) (Homo sapiens, UniProt P00519, Q252H)"}, "PrKX(h)": {"target": "T4, PrKX(h) (Homo sapiens, UniProt P51817)", "T4 sequence (P51817 1-358)": "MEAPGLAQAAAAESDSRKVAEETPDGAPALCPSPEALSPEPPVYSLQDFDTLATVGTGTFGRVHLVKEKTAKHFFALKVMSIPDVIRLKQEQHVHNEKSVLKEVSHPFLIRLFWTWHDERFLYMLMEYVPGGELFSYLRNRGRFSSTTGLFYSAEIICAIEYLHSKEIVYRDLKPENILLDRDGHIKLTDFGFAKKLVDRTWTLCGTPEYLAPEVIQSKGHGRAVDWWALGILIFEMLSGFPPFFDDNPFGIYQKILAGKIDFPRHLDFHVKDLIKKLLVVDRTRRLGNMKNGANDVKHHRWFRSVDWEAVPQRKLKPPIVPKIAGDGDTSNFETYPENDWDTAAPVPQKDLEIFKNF"}}}
{"sequence": "YARAAARQARAKALNRQLGVA (Mammalian) [MMI-0200]", "values": [{"measurement": "% activity", "setting": "TAO1(h)", "result": 105, "unit": "%"}, {"measurement": "% activity", "setting": "IKKα(h)", "result": 104, "unit": "%"}, {"measurement": "% activity", "setting": "BrSK2(h)", "result": 102, "unit": "%"}, {"measurement": "% activity", "setting": "CDK3/cyclinE(h)", "result": 104, "unit": "%"}, {"measurement": "% activity", "setting": "Ab1(Q252H)(h)", "result": 107, "unit": "%"}, {"measurement": "% activity", "setting": "PrKX(h)", "result": 112, "unit": "%"}]}
